Data taken from ChEMBL document CHEMBL1156685, “Synthesis and structure-activity relationships of N-6 substituted analogues of 9-hydroxy-4-phenylpyrrolo[3,4-c]carbazole-1,3(2H,6H)-diones as inhibitors of Wee1 and Chk1 checkpoint kinases” (Eur J Med Chem, 2008).

Chains of the proteins cited; added tags and fusions are not shown. Lines headed by an entry give the natural chain unless they say otherwise; changes in a name come on top.
UniProt P30291: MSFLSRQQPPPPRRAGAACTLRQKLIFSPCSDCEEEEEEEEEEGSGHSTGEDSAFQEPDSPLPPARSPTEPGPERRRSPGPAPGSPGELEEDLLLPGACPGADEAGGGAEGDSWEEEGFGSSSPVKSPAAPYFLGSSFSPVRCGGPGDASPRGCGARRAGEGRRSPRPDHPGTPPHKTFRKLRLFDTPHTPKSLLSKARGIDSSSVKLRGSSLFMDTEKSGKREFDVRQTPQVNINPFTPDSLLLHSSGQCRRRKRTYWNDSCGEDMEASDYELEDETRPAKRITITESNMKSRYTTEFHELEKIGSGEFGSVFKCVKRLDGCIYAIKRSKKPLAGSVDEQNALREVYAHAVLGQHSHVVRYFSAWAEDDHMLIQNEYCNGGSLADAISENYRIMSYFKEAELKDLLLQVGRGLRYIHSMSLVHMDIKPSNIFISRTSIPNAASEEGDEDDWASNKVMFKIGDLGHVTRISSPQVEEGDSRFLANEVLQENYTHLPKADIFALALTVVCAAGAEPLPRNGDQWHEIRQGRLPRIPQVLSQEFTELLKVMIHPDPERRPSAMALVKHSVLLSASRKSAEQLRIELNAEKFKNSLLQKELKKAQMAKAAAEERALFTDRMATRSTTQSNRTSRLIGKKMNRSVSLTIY

Molecular target: Wee1-like protein kinase (Homo sapiens, UniProt P30291)

SMILES	IC50 [nM]
O=C(O)CCn1c2ccc(O)cc2c2c3c(c(-c4ccccc4)cc21)C(=O)NC3=O	23
O=C1NC(=O)c2c1c(-c1ccccc1)cc1c2c2cc(O)ccc2n1CCn1ccnc1	230
Cn1c2ccc(O)cc2c2c3c(c(-c4ccccc4)cc21)C(=O)NC3=O	140
CN(C)CCNC(=O)CCn1c2ccc(O)cc2c2c3c(c(-c4ccccc4)cc21)C(=O)NC3=O	170
